The results in this text go back to paper PMC2074348, “Preclinical in vivo efficacy of two 9-dihydrotaxane analogues against human and murine tumours” (British Journal of Cancer, 1996).

The data set relates to BDF mice bearing B16F10 ascites tumours. Kind of data set: Maximum tolerated dose, i.p. once daily for 5 consecutive days. The note with it: maximum dose yielding <20% lethality following five i.p. doses once daily.

As to 9-dihydrotaxol, the “MTD (q.d. days 1-5)” value is given as “greater than 100 mg kg-1 per day”.
